Drawing on PubChem BioAssay AID2012 (Sanford-Burnham Center for Chemical Genomics, 2009), this text covers inhibition for 58 compounds.

Molecules are shown by their SMILES. “And” between values parts separate entries of the source, which are not always exact repeats. Equal entries are not always repeated. The entries are a selection whose mix differs from that of the whole data set. The source made the active and inactive calls. The rule behind the calls is not given here.

The target of this assay is Eukaryotic translation initiation factor 4H (Homo sapiens) (UniProt Q15056). Description: eIF4H binding inhibition – biochemical, uHTS, fluorescence polarization, translation initiation inhibitor project, primary screen (AID 2012). The settings on record: eIF4H fluorescence polarization binding assay; at 35 µM; stronger effect = higher value. For orientation: Fluorescence polarisation rises when a labelled molecule tumbles more slowly, as on binding a larger partner.
As usually defined, the inhibition is the change of the read-out against control, counted positive when it falls. In the case of `Clc1ccc(Cl)c(NC2=NCC(CBr)S2)c1` (stereo not drawn), the inhibition is inactive: -2.8%.

With `CN(C)CCOC(=O)C(O)(c1ccccc1)C1CCCC1` (stereo not drawn), the inhibition is inactive: 2.8%.

Take `Cc1nc2ccc3ccccc3c2o1.O=[N+]([O-])c1cc([N+](=O)[O-])c(O)c([N+](=O)[O-])c1`: the inhibition is inactive: 10.1%.

As to `CCN(N=Nc1nonc1N)c1nonc1N`, the inhibition was inactive: -3.6%.

Turning to `CP(=O)(Nc1ccc(Cl)cc1Cl)Oc1ccccc1` (stereo not drawn), the inhibition was inactive: -1.3%.

Regarding `CP(=O)(OCCOc1ccccc1)OCCOc1ccccc1`, the inhibition is inactive: 2.9%.

`CC(=O)Nc1ccc([As](=O)(O)O)cc1`: the inhibition was inactive: 1.9%.

As to `O=C(O)c1ccccc1[As](=O)(O)O`, the inhibition was inactive: 0.2%.

Regarding `O=P(Nc1nc2ccc(Cl)cc2s1)(c1ccccc1)c1ccccc1`, the inhibition was inactive: 12.8%.

As for `Cc1cc(C)cc(OP(C)(=O)Nc2cccc(C(F)(F)F)c2)c1` (stereo not drawn), the inhibition is inactive: -6.2%.

Consider `COc1ccccc1OP(C)(=O)Nc1ccc(C)c(C)c1` (stereo not drawn), for which the inhibition was inactive: 3.4%.

On to `Cc1ccc(NP(=O)(Oc2ccccc2F)Oc2ccccc2F)nc1`, for which the inhibition is inactive: 1.8%.

Regarding `Cc1cc(SC(NC(=O)c2ccc(F)cc2)C(Cl)(Cl)Cl)ncn1` (stereo not drawn), the inhibition was inactive: -2%.

As to `CCOP(=O)(Nc1ccccc1)OCC`, the inhibition was inactive: -6% and inactive: 10.1%.

In the case of `COc1ccc(OP(C)(=O)Nc2ccccc2Br)cc1` (stereo not drawn), the inhibition was inactive: -2.9%.

On to `Cc1ccc(NP(C)(=O)Oc2ccccc2)c(C)c1` (stereo not drawn), for which the inhibition was inactive: -3.1%.

`CC(C)c1ccc(OP(=O)(Nc2ccccn2)Oc2ccccc2F)cc1` (stereo not drawn): the inhibition was inactive: 4.8%.

For `COc1ccccc1OP(C)(=O)Nc1ccc(C)cc1` (stereo not drawn), the inhibition was inactive: -13.4%.

With `ClCCSc1nnc(-c2cccnc2)o1`, the inhibition is inactive: -9.5%.

As for `CCOC(=O)c1ccc(NP(C)(=O)Oc2ccccc2)cc1` (stereo not drawn), the inhibition was inactive: -6.6%.

Consider `Cc1cc(C)cc(OP(C)(N)=O)c1` (stereo not drawn), for which the inhibition was inactive: -7.9%.

Regarding `COc1ccc(OP(C)(=O)Nc2cccc(F)c2)cc1` (stereo not drawn), the inhibition is inactive: 4.9%.

`COc1ccccc1OP(C)(=O)Nc1cc(Cl)ccc1C` (stereo not drawn): the inhibition is inactive: 2.5%.

As for `CC(C)NC(=O)NP(=O)(Oc1ccccc1)Oc1ccccc1`, the inhibition is inactive: -2.3%.

In the case of `CCN(CC)C(=S)SC(NC=O)C(Cl)(Cl)Cl` (stereo not drawn), the inhibition was inactive: -12.5%.

On to `O=[As](O)(c1ccc(O)cc1)c1ccccc1O`, for which the inhibition was inactive: 5.8%.

Regarding `C[As](=O)(O)c1cccc(C(=O)O)c1`, the inhibition is inactive: 3.3%.

For the compound `O=[N+]([O-])c1ccc2c(c1)C=Nc1ccccc1O2`, the inhibition was inactive: -12.7%.

For the compound `Cc1ccc2nc3c(c(C)c2c1)CC(C(Cl)Cl)S3` (stereo not drawn), the inhibition was inactive: 0.2%.

Turning to `Cc1cccc(C)c1OP(C)(N)=O` (stereo not drawn), the inhibition is inactive: 1.3%.

For the compound `Cc1ccc(OP(=O)(Nc2ccc([N+](=O)[O-])cn2)Oc2ccc(C)cc2)cc1`, the inhibition was inactive: 3.9%.

Turning to `CC(C)(C)c1ccc(OP(C)(=O)Nc2ccc(SC(F)(F)F)cc2)cc1` (stereo not drawn), the inhibition was inactive: 1.6%.

`COc1ccc(N/C(=N/P(=O)(N2CCOCC2)N2CCOCC2)N2CCOCC2)cc1`: the inhibition is inactive: -5.3%.

With `Cc1cc(=O)[nH]c(N[N+](=O)[O-])n1`, the inhibition is inactive: -10.9%.

Regarding `CCN(CC)CCCOC(=O)C(O)(c1ccccc1)c1ccccc1`, the inhibition was inactive: -9%.

Turning to `O=C(OC1CN2CCC1CC2)C12CC3CC(CC(C3)C1)C2` (stereo not drawn), the inhibition is inactive: -10.9%.

In the case of `Cc1c2c(nc3ccccc13)SC(C(Cl)Cl)C2` (stereo not drawn), the inhibition is inactive: 4.5%.

As for `COc1cc(I)ccc1[As](=O)(O)O`, the inhibition was inactive: 0.6%.

With `COc1ccc2nc(NP(=O)(c3ccccc3)c3ccccc3)sc2c1`, the inhibition was inactive: 9.5%.

With `CCOC(=O)c1ccc(NP(C)(=O)Oc2ccc(OC)cc2)cc1` (stereo not drawn), the inhibition is inactive: -1%.

As to `CCOC(=O)c1ccc(NC(=O)C(C)(CCl)SC)cc1` (stereo not drawn), the inhibition was inactive: -9.5%.

As for `O=C(OC1CN2CCC1CC2)c1cccc([N+](=O)[O-])c1` (stereo not drawn), the inhibition was inactive: 6.1%.

Turning to `CCOP(C)(=S)SCC(=O)NC(C)C(=O)O` (stereo not drawn), the inhibition is inactive: -3.8%.

Turning to `CP(=O)(Nc1ccccn1)Oc1ccc(Cl)cc1` (stereo not drawn), the inhibition is inactive: 0.8%.

Turning to `CCC(C)N(CC(C)C)C(=S)SC(NC(C)=O)C(Cl)(Cl)Cl` (stereo not drawn), the inhibition was inactive: -7.7%.

Regarding `CP(=O)(Oc1ccccc1)OC(c1ccccc1)C(F)(F)F` (stereo not drawn), the inhibition was inactive: 1.5%.

Turning to `COP1(=S)c2c(C)nn(CCC#N)c2N=C(c2ccc(F)cc2)N1C` (stereo not drawn), the inhibition was inactive: 10.7%.

Turning to `Cc1cccc(C)c1OP(C)(=O)Nc1ccc(SC(F)(F)F)cc1` (stereo not drawn), the inhibition is inactive: -8.6%.

On to `CP(=O)(Nc1ccc(SC(F)(F)F)cc1)Oc1ccc(Cl)cc1` (stereo not drawn), for which the inhibition is inactive: -8.4%.

For `Cc1cc(C)cc(OP(C)(=O)Nc2ccc(SC(F)(F)F)cc2)c1` (stereo not drawn), the inhibition is inactive: -0.9%.

As to `O=C(Nc1ccncc1[N+](=O)[O-])c1ccc([N+](=O)[O-])cc1[N+](=O)[O-]`, the inhibition is inactive: 3.6%.

`O=C(COc1ccccc1)OC1CN2CCC1CC2` (stereo not drawn): the inhibition is inactive: 7.5%.

For the compound `CP(=O)(NC(=O)Nc1ccccc1)Oc1ccccc1` (stereo not drawn), the inhibition was inactive: -8.1%.

For the compound `CCc1ccc(OP(C)(=O)N2CCN(c3ccc([N+](=O)[O-])cc3)CC2)cc1` (stereo not drawn), the inhibition was inactive: -3.3%.

Turning to `CCOC(=O)Nc1cccc([As](=O)(O)O)c1`, the inhibition was inactive: 3.9%.

For the compound `CP(=S)(Nn1cnnc1)Oc1ccccc1` (stereo not drawn), the inhibition is inactive: 2.5%.

As to `O=[N+]([O-])c1ccc(Nc2ccc(Oc3ccc([N+](=O)[O-])cc3[N+](=O)[O-])cc2)c([N+](=O)[O-])c1`, the inhibition was inactive: 4.3%.

Turning to `CP(=O)(Nc1ccccc1Br)Oc1ccccc1` (stereo not drawn), the inhibition is inactive: 6.9%.
